The source of these data is US4933368A, “N-phenylbenzamide derivatives” (Godecke Aktiengesellschaft, priority 1983, dated 1990).

One data set in a line: in vivo. Conditions: mouse, po.
For data set [1], the system named is murine tumors and human tumor xenografts. Conditions: mouse, in vivo, 120 mg/kg.

The structures appear in SMILES notation.

Consider `O=C1NC(=O)C(c2ccccc2)(c2ccccc2)N1` [Diphenylhydantoin, reference compound], for which, in “in vivo”, the LD50 at 168 h turned out to be 128 mg/kg. Consider `Nc1ccc(C(=O)Nc2ccccc2N)cc1` [Substance A, 4-Amino-N-(2'-aminophenyl)-benzamide], for which the mortality entry in data set [1] was “mortality had occurred in all groups”.
